pIC50: −log10 of the molar value. Like-named read-outs stand apart in the source and are kept apart here.
Columns and labels:
Type in all cases: biochemical
[1] = target: PDGFR-β kinase (Homo sapiens (Human), UniProt P09619); assay: PDGFR-β kinase inhibition
[2] = target: Thymidylate synthase (Toxoplasma gondii, UniProt Q07422); assay: Thymidylate synthase inhibition, Toxo; settings: Toxo TS
[3] = target: Thymidylate synthase (Escherichia coli (strain K12), UniProt P0A884); assay: Thymidylate synthase inhibition, E. coli; settings: E. coli TS

Protein sequences, listed by entry. Tags and fused reporters are not part of them. Lines headed by an entry give the natural chain unless they say otherwise; changes in a name come on top. Residues count along the entry.
UniProt P09619, 33-1106: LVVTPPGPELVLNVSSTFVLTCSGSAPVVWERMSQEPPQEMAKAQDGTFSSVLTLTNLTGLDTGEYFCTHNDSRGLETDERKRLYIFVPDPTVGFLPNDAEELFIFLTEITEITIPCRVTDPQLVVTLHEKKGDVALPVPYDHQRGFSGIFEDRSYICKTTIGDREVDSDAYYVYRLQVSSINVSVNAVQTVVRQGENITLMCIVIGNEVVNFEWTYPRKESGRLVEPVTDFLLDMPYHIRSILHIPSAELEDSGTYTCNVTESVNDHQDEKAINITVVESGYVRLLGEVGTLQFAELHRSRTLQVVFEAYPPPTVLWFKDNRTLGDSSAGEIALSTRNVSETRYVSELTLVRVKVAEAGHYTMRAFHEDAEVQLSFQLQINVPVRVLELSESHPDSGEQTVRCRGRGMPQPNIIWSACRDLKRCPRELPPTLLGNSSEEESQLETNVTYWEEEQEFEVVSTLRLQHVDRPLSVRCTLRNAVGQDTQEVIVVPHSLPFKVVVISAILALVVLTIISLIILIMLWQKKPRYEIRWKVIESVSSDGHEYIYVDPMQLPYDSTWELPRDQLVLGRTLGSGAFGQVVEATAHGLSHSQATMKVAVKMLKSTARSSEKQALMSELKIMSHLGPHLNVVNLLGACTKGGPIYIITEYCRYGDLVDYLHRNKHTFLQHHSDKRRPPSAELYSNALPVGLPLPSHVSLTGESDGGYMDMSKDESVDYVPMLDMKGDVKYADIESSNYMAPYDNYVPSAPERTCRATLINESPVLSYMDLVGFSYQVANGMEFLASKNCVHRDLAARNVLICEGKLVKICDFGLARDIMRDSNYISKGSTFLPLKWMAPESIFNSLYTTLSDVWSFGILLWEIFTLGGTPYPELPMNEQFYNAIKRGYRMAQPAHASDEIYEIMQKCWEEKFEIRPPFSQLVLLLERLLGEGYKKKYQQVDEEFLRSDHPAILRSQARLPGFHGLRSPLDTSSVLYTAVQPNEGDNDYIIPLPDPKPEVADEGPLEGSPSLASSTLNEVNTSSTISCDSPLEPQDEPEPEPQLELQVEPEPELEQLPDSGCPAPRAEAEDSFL
UniProt P0A884: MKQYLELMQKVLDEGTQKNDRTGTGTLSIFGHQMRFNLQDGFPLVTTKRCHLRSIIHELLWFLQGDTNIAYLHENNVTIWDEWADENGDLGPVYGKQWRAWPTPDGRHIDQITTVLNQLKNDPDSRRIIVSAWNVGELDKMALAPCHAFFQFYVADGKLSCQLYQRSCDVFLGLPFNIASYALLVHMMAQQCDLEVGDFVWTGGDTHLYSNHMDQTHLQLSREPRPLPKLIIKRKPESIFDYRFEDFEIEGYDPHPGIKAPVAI

Row | pIC50 ([1]; Table 1, read-out: PDGFR-β kinase inhibition) | pIC50 ([1]; Table 3, read-out: PDGFR-β kinase) | pIC50 ([1]; Table 5, quantity and unit inferred, read-out: PDGFR-β kinase) | Structure (SMILES) | pIC50 [2] | pIC50 [3]
1 | 5.43 | 5.43 | 5.43 | CN(C)c1ccc(/C=C2/C(=O)Nc3ccccc32)cc1 [DMBI, reference compound] | – | –
2 | – | – | – | Nc1nc2[nH]cc(CCc3ccc(C(=O)N[C@@H](CCC(=O)O)C(=O)O)cc3)c2c(=O)[nH]1 [Pemetrexed] | 4.85 | –
3 | – | – | – | Cc1nc2ccc(CN(C)c3ccc(C(=O)N[C@@H](CCC(=O)O)C(=O)O)s3)cc2c(=O)[nH]1 [Raltitrexed] | 6.32 | 5.64
